Laboratory results from patent US20240360219A1 (FBD BIOLOGICS, published 2024).

T1: human TGFβ3 (human, UniProt P10600 301-412)
T1 construct: also called hTGFβ3
T1 sequence (looked up): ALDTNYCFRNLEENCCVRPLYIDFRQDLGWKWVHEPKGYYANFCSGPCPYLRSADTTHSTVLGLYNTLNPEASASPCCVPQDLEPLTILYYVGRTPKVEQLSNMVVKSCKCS

T2: human TGFβ2 (human, UniProt P61812 303-414)
T2 construct: also called hTGFβ2
T2 sequence (looked up): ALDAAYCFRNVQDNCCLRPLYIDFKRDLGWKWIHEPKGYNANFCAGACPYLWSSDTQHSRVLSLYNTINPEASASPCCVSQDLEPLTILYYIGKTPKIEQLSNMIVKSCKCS

B1: HCB301-3 (Fc fusion)
chain: [about 120 residues not shown]KPSGSGGSGGSGGSGGSGGSGDSPDRPWNPPTFSPALLVVTEGDNATFTCSFSNTSESFVLNWYRMSPSNQTDKLAAFPEDRSQPGQDCRFRVTQLPNGRDFHMSVVRARRNDSGTYLCGAISLAPKAQIKESLRAELRVTERRAEVPTAHPSPSPRPAGQFQTLVESKYGPPCPPCPAPEFLGGPSVFLFPPKPKDTLMISRTPEVTCVVVDVSQEDPEVQFNWYVDGVEVHNAKTKPREEQFNSTYRVVSVLTVLHQDWLNGKEYKCKVSNKGLPSSIEKTISKAKGQPREPQVYTLPPSQEEMTKNQVSLTCLVKGFYPSDIAVEWESNGQPENNYKTTPPVLDSDGSFFLYSRLTVDKSRWQEGNVFSCSVMHEALHNHYTQKSLSLSLGAGGGGSGGGGSGGGGSGGGGSGIPPHVQKSVNNDMIVTDNNGAVKFPQLCKFCDVRFSTCDNQKSCMSNCSITSICEKPQEVCVAVWRKNDENITLETVCHDPKLPYHDFILEDAASPKCIMKEKKKPGETFFMCSCSSDECNDNIIFSEEYNTSNPD
notes: expressed in CHO-S cells
B2: HCB301-4 (Fc fusion)
chain: DSPDRPWNPPTFSPALLVVTEGDNATFTCSFSNTSESFVLNWYRMSPSNQTDKLAAFPEDRSQPGQDCRFRVTQLPNGRDFHMSVVRARRNDSGTYLCGAISLAPKAQIKESLRAELRVTERRAEVPTAHPSPSPRPAGQFQTLVGSGGSGGSGGSGGSGGSGEE[about 120 residues not shown]KPSESKYGPPCPPCPAPEFLGGPSVFLFPPKPKDTLMISRTPEVTCVVVDVSQEDPEVQFNWYVDGVEVHNAKTKPREEQFNSTYRVVSVLTVLHQDWLNGKEYKCKVSNKGLPSSIEKTISKAKGQPREPQVYTLPPSQEEMTKNQVSLTCLVKGFYPSDIAVEWESNGQPENNYKTTPPVLDSDGSFFLYSRLTVDKSRWQEGNVFSCSVMHEALHNHYTQKSLSLSLGAGGGGSGGGGSGGGGSGGGGSGIPPHVQKSVNNDMIVTDNNGAVKFPQLCKFCDVRFSTCDNQKSCMSNCSITSICEKPQEVCVAVWRKNDENITLETVCHDPKLPYHDFILEDAASPKCIMKEKKKPGETFFMCSCSSDECNDNIIFSEEYNTSNPD
notes: expressed in CHO-S cells
B3: HCB301-1 (Fc fusion)
chain: [about 120 residues not shown]KPSGSGGSGGSGGSGGSGGSGDSPDRPWNPPTFSPALLVVTEGDNATFTCSFSNTSESFVLNWYRMSPSNQTDKLAAFPEDRSQPGQDCRFRVTQLPNGRDFHMSVVRARRNDSGTYLCGAISLAPKAQIKESLRAELRVTERRAEVPTAHPSPSPRPAGQFQTLVGGGGSGGGGSGGGGSDSPDRPWNPPTFSPALLVVTEGDNATFTCSFSNTSESFVLNWYRMSPSNQTDKLAAFPEDRSQPGQDCRFRVTQLPNGRDFHMSVVRARRNDSGTYLCGAISLAPKAQIKESLRAELRVTERRAEVPTAHPSPSPRPAGQFQTLVESKYGPPCPPCPAPEFLGGPSVFLFPPKPKDTLMISRTPEVTCVVVDVSQEDPEVQFNWYVDGVEVHNAKTKPREEQFNSTYRVVSVLTVLHQDWLNGKEYKCKVSNKGLPSSIEKTISKAKGQPREPQVYTLPPSQEEMTKNQVSLTCLVKGFYPSDIAVEWESNGQPENNYKTTPPVLDSDGSFFLYSRLTVDKSRWQEGNVFSCSVMHEALHNHYTQKSLSLSLGAGGGGSGGGGSGGGGSGGGGSGIPPHVQKSVNNDMIVTDNNGAVKFPQLCKFCDVRFSTCDNQKSCMSNCSITSICEKPQEVCVAVWRKNDENITLETVCHDPKLPYHDFILEDAASPKCIMKEKKKPGETFFMCSCSSDECNDNIIFSEEYNTSNPD
notes: expressed in CHO-S cells
B4: PD1_G4 (Fc fusion)
chain: DSPDRPWNPPTFSPALLVVTEGDNATFTCSFSNTSESFVLNWYRMSPSNQTDKLAAFPEDRSQPGQDCRFRVTQLPNGRDFHMSVVRARRNDSGTYLCGAISLAPKAQIKESLRAELRVTERRAEVPTAHPSPSPRPAGQFQTLVESKYGPPCPPCPAPEFLGGPSVFLFPPKPKDTLMISRTPEVTCVVVDVSQEDPEVQFNWYVDGVEVHNAKTKPREEQFNSTYRVVSVLTVLHQDWLNGKEYKCKVSNKGLPSSIEKTISKAKGQPREPQVYTLPPSQEEMTKNQVSLTCLVKGFYPSDIAVEWESNGQPENNYKTTPPVLDSDGSFFLYSRLTVDKSRWQEGNVFSCSVMHEALHNHYTQKSLSLSLGK
notes: Control protein; also called PD1-ECD-Fc

Assays:
[1] = target: T1, human TGFβ3; test: ELISA, plate coated with 1 µg/ml human TGFβ3, HRP secondary antibody, OD 450 nm
[2] = target: T3, human CD47 (human, UniProt Q08722); test: flow cytometry on CD47 tf CHO-S cells, PE anti-human IgG
T3 construct: whole, on cells; also called CD47 tf CHO-S; cluster of differentiation 47

[3] = target: T4, human PD-L1 (human); test: flow cytometry on PDL1 tf CHO-S cells, PE anti-human IgG
T4 construct: whole, on cells; also called PDL1 tf CHO-S; PD-L1 tf OE19

[4] = target: T2, human TGFβ2; test: ELISA, plate coated with 1 µg/ml human TGFβ2, HRP secondary antibody, OD 450 nm; curve without plateau
[5] = target: T2, human TGFβ2; test: ELISA, plate coated with 1 µg/ml human TGFβ2, HRP secondary antibody, OD 450 nm; the printed EC50 lies above the highest concentration shown (500 nM)
[6] = target: T4, human PD-L1; test: flow cytometry blocking assay on PD-L1 tf CHO-S cells; competitor: fixed concentration of biotinylated PD1_G4 (biotin-PD1-ECD-Fc), streptavidin-PE

| EC50 [1] [nM] | binding result [2] | binding result [3] | EC50 [4] [nM] | EC50 [5] [nM] | IC50 (read off the curve) [6] [nM] | Binder |
| --- | --- | --- | --- | --- | --- | --- |
| 1.45 | binds | binds |  |  |  | B1 |
| 1.5 |  |  | 217 |  |  | B2 |
| 1.76 |  |  |  | 1130 | ~2 | B3 |
|  | no binding (tested: 500 nM) |  |  |  |  | B4 |
